Results reported in patent US11071731B2, “Allosteric modulators of the mu opioid receptor” (Chiromics, LLC, priority 2017, dated 2021).

Sequences of proteins named here, by UniProt entry; tags and fusion partners are left off.
UniProt P35372, whole entry, looked up: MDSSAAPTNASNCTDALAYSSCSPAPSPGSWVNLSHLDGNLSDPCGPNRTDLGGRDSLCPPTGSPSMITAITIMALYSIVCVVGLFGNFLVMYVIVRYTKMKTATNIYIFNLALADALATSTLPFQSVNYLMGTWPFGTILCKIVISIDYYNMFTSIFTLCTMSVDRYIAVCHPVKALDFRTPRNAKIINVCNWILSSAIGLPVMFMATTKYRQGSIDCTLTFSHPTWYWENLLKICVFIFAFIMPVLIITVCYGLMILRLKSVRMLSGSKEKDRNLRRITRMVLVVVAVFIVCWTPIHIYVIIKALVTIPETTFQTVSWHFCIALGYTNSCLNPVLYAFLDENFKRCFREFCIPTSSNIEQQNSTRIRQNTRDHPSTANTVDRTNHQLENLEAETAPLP

How the values were obtained:
MOR [1] = target: T1, MOR (Homo sapiens, UniProt P35372); assay: β-arrestin recruitment, allosteric effect on EC20 fentanyl agonism; settings: for Max. Response: EC20 Fentanyl agonism of MOR
MOR [2] = target: T1, MOR; assay: cAMP (adenylyl cyclase inhibition), allosteric effect on EC20 fentanyl agonism; settings: for Max. Response: EC20 Fentanyl agonism of MOR
[3] = read-out: RC50, EC20 Fentanyl agonism of MOR

Compound | Max. Response (MOR [1]) | Max. Response (MOR [2]) | EC50 (MOR [1]; [3]) [µM] | EC50 (MOR [2]; [3]) [µM]
Fc1ccc(Cl)cc1CN1CCCCC1c1cccc(C(F)(F)F)n1 (stereo not drawn) [compound 2] | 19 | 0 |  | 
COc1ccc(C2CCCCN2S(=O)(=O)c2ccc(Cl)cc2)cc1Br (single isomer, unassigned) | 179 | 95 | 5.79 | 2.01
